Experiments:
KRas G12C [1] = biological target: KRas G12C (Homo sapiens, UniProt P01116, C118S/C51S/C80L/G12C); test: KRas G12C Modification Assay (LCMS detection of covalent adduct); format: binding; settings: normalized percent of control; 5 μM concentration for 3 hours
KRas G12C [2] = biological target: KRas G12C (Homo sapiens, UniProt P01116, G12C); test: Cellular inhibition of KRas G12C measured by Phospho-ERK in NCI-H358 cells; format: cell-based; settings: IC50, pERK(Thr202/Tyr204) normalized with GAPDH, 3 hours

SMILES	POC (KRas G12C [1])	IC50 (KRas G12C [2])
C=CC(=O)N1CCN(c2nc(OC[C@@H]3CCCN3C)nc3c2CCN(c2cc(O)cc4ccccc24)C3)CC1 [Example 127, (S)-1-(4-(7-(3-hydroxynaphthalen-1-yl)-2-((1-methylpyrrolidin-2-yl)methoxy)-5,6,7,8-tetrahydropyrido[3,4-d]pyrimidin-4-yl)piperazin-1-yl)prop-2-en-1-one]	C (“C”>50% POC)	0.1 to 1000 nM
C=CC(=O)N1CCN(c2nc(OC[C@H]3CCCN3C)nc3c2CCN(c2cc(O)cc4ccccc24)C3)CC1 [Example 187, (R)-1-(4-(7-(3-hydroxynaphthalen-1-yl)-2-((1-methylpyrrolidin-2-yl)methoxy)-5,6,7,8-tetrahydropyrido[3,4-d]pyrimidin-4-yl)piperazin-1-yl)prop-2-en-1-one]	C (“C”>50% POC)	0.1 to 1000 nM
C=CC(=O)N1CCN(c2nc(OC[C@@H]3CCCN3C)nc3c2CCN(c2cccc4ccccc24)C3)CC1 [Example 200, (S)-1-(4-(2-((1-methylpyrrolidin-2-yl)methoxy)-7-(naphthalen-1-yl)-5,6,7,8-tetrahydropyrido[3,4-d]pyrimidin-4-yl)piperazin-1-yl)prop-2-en-1-one]	C (“C”>50% POC)	
